Data published in ChEMBL document CHEMBL1136236, “Design and parallel synthesis of piperidine libraries targeting the nociceptin (N/OFQ) receptor” (Bioorg Med Chem Lett, 2003).

By UniProt entry, the sequences of proteins in these tests, tags left out.
UniProt P35372, whole entry, looked up: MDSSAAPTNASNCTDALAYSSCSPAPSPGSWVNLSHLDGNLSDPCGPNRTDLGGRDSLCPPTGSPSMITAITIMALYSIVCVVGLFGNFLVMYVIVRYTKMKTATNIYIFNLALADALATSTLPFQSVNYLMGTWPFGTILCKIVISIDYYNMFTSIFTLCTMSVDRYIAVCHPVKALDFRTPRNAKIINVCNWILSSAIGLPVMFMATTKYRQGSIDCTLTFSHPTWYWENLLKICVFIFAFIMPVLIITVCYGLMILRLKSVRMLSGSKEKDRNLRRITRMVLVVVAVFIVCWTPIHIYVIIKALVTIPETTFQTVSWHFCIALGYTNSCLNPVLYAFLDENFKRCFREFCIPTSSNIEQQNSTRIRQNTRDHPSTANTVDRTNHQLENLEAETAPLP

Molecular target: Mu-type opioid receptor (Homo sapiens, UniProt P35372)
Experiment: Selectivity ratio of Opioid receptor mu 1 binding to Orphanin FQ receptor

CC(C)C1CCC(N2CCC(O)(c3cccc(C(F)(F)F)c3)CC2)CC1 (stereo unspecified)
Selectivity ratio: 3
